The values that follow come from ChEMBL document CHEMBL5537207, “Discovery and Characterization of Selective, First-in-Class Inhibitors of Citron Kinase” (J Med Chem, 2024).

By UniProt entry, the sequences of proteins in these tests, tags left out. Where a name states a change or a piece, a line headed by the entry shows the natural chain unless it says otherwise.
UniProt P31749: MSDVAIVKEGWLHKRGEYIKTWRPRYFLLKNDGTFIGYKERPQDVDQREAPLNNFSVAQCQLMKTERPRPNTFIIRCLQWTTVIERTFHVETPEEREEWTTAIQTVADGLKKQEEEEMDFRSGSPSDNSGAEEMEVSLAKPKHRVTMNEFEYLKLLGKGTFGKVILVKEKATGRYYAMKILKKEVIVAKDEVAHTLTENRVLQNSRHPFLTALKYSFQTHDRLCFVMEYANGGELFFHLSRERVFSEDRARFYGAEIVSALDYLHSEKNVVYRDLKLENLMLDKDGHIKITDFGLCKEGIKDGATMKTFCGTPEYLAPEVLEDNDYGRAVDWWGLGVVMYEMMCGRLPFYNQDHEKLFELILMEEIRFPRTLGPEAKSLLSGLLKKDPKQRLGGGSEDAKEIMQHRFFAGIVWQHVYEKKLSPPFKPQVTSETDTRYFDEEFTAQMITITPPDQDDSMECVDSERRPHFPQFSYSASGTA
UniProt Q5VT25: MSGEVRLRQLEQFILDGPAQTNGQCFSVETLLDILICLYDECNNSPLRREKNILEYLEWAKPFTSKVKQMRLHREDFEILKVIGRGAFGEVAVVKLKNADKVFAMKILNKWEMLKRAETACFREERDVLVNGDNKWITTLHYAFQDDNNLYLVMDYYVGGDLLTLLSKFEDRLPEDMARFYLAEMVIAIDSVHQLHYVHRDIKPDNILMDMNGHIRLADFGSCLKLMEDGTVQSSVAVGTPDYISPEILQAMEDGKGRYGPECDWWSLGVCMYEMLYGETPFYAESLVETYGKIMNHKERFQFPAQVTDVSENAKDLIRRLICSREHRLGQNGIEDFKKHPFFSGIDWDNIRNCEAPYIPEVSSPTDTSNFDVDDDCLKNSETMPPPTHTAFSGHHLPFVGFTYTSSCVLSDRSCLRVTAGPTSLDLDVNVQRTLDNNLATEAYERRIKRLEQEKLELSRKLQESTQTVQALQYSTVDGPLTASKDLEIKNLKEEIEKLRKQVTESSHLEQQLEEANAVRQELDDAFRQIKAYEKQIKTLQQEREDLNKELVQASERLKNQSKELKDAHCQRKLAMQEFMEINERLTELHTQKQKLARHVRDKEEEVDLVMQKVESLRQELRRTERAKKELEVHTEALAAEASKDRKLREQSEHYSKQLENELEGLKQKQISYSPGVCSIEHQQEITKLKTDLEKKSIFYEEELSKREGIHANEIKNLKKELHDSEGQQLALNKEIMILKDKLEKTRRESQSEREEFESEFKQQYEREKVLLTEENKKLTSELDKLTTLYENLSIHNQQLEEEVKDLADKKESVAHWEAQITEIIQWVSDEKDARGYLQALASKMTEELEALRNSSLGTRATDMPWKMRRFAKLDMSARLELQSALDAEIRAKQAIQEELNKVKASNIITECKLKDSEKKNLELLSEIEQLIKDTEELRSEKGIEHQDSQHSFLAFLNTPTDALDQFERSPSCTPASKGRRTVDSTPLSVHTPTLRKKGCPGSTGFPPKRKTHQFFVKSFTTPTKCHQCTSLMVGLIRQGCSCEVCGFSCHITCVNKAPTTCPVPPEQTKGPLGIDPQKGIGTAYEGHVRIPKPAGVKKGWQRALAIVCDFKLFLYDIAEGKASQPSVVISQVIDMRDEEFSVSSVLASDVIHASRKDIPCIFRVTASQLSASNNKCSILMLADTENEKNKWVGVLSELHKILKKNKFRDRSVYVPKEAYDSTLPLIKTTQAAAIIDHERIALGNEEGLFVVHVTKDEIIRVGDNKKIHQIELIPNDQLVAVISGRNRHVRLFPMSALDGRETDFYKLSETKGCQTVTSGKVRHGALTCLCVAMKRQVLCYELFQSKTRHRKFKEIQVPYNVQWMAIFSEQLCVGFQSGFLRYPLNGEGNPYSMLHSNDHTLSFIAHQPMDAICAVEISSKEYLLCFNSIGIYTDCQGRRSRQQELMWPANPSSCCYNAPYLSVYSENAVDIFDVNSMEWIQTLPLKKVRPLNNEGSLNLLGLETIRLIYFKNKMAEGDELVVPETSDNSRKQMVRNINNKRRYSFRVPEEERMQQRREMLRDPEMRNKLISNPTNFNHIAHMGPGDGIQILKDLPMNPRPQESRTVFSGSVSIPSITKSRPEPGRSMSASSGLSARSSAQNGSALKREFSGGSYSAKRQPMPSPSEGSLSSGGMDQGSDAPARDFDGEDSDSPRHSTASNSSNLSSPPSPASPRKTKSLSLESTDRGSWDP
UniProt O75116: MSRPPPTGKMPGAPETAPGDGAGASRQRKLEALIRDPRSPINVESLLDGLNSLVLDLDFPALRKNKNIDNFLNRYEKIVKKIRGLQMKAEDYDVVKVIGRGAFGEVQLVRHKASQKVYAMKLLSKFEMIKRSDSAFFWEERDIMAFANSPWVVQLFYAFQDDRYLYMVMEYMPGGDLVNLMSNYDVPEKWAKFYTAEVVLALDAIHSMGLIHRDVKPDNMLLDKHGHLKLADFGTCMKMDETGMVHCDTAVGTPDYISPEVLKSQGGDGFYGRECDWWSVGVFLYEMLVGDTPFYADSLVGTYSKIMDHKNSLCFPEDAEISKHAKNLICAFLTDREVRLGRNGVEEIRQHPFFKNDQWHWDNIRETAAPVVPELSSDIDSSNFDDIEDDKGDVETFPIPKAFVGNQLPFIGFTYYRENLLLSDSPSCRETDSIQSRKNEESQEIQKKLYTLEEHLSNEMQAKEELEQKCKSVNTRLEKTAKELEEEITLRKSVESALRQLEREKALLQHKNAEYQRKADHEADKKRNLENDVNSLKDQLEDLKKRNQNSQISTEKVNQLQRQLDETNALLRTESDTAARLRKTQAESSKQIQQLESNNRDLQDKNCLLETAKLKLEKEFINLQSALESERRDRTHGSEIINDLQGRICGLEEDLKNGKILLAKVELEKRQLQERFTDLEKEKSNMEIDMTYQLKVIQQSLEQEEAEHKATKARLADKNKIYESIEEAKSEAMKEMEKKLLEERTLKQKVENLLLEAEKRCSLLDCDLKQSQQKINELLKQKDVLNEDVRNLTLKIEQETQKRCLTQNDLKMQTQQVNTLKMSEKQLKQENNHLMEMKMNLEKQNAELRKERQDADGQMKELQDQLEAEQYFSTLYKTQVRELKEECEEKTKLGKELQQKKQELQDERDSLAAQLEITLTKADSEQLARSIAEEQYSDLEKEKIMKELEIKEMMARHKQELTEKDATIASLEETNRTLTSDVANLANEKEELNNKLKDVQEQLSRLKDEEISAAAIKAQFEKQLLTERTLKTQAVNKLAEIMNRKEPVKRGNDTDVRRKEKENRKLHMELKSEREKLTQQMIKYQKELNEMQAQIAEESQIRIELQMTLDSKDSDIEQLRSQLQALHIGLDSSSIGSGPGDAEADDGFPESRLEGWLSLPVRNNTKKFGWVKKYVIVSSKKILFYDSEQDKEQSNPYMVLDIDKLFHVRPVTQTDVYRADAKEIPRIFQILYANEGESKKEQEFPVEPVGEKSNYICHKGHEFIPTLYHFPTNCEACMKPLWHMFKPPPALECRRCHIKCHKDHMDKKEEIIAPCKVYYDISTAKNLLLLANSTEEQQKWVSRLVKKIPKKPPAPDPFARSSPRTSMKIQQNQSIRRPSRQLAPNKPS

Experiment [1] has as its system HeLa. Put plainly: Induction of multinucleation in human HeLa cells assessed as increase in live nuclei to cell ratio at 20 uM incubated for 48 hrs by Cytokinesis assay. The class given is functional, cell-based.
Experiment [2] concerns HeLa. Kind of experiment: Effect on cell cycle progression in human HeLa cell line expressing tFUCCI(CA)s fluorescent reporters assessed as accumulation of cells at G1 phase (RFP positive) at 2 uM measured after 48 hrs by Cell cycle progression assay. The class given is functional, cell-based.
The test system of experiment [3] is HeLa. Kind of experiment: Antiproliferative activity against human HeLa cells assessed as cell viability at 10 uM incubated for 48 hrs by CellTiter-Glo cell viability assay. Type of experiment: functional, cell-based. Background: ATP-based viability assays read luminescence as a measure of living cells.
The test system of experiment [4] is HeLa. Put plainly: Effect on cell cycle progression in human HeLa cell line expressing tFUCCI(CA)s fluorescent reporters assessed as accumulation of cells at S phase (GFP positive) at 2 uM measured after 48 hrs by Cell cycle progression assay. The class given is functional, cell-based.
Experiment [5] has as its system HeLa. Put plainly: Effect on cell cycle progression in human HeLa cell line expressing tFUCCI(CA)s fluorescent reporters assessed as accumulation of cells at G2/M1 phase (RFP/GFP positive) at 2 uM measured after 48 hrs by Cell cycle progression assay. The class given is functional, cell-based.
Experiment [6] has as its system HeLa. Kind of experiment: Antiproliferative activity against human HeLa cells assessed as cell viability at 10 uM incubated for 164 hrs by CellTiter-Glo cell viability assay relative to Staurosporine. The class given is functional, cell-based.
In experiment [7] the test system is HeLa. Kind of experiment: Induction of multinucleation in human HeLa cells assessed as increase in live nuclei to cell ratio at 2 uM incubated for 48 hrs by Cytokinesis assay. The class given is functional, cell-based.
Experiment [8] has as its system PRISM Panel (900 carcinoma cell lines). Kind of experiment: Antiproliferative activity against human PRISM Panel (900 carcinoma cell lines) assessed as cell viability by standard PRISM assay. The class given is functional, cell-based.
Experiment [9] has as its target T1, Myotonin-protein kinase (Homo sapiens) (UniProt Q09013).
T1 sequence (whole entry): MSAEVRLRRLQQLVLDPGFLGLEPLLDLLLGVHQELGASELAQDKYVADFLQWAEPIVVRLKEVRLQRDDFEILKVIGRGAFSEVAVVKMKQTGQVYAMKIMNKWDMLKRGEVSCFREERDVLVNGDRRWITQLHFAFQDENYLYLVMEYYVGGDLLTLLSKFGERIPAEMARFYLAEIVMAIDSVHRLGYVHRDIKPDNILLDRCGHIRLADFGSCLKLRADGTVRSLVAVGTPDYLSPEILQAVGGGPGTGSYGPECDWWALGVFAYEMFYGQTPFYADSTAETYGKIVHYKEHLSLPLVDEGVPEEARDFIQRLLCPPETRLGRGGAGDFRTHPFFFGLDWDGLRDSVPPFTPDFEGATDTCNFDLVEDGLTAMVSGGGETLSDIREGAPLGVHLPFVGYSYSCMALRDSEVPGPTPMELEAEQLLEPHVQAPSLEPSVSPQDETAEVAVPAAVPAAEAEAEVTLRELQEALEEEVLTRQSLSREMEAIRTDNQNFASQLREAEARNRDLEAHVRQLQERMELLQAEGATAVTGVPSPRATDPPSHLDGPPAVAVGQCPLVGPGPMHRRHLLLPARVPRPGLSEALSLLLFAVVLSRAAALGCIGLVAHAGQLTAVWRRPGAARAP
Put plainly: Inhibition of human recombinant DMPK (1 to 549) using KKSRGDYMTMQIG as substrate at 1 uM incubated for 40 mins by radiometric scintillation counting analysis relative to control.

The target of experiment [10] is RAC-alpha serine/threonine-protein kinase (Homo sapiens) (UniProt P31749). Kind of experiment: Inhibition of human full length AKT1 using GRPRTSSFAEGKK as substrate at 1 uM incubated for 40 mins by [33P]-gammaATP based Topcount scintillation counting analysis relative to control.
Experiment [11] addresses Serine/threonine-protein kinase MRCK alpha (Homo sapiens) (UniProt Q5VT25). Kind of experiment: Inhibition of human recombinant MRCKalpha (1 to 549) using KKRNRTLTV as substrate at 1 uM incubated for 40 mins by radiometric scintillation counting analysis relative to control.
In experiment [12] the target is cAMP-dependent protein kinase catalytic subunit alpha (Homo sapiens) (UniProt P17612). Kind of experiment: Inhibition of human full length PKAalpha expressed in Escherichia coli using peptide substrate at 1 uM incubated for 15 mins by [33P]-gammaATP based Topcount scintillation counting analysis relative to control.
Experiment [13] has as its target Rho-associated protein kinase 2 (Homo sapiens) (UniProt O75116). Kind of experiment: Inhibition of human recombinant ROCK2 (11 to 552) using KEAKEKRQEQIAKR as substrate at 1 uM incubated for 40 mins by [33P]-gammaATP based Topcount scintillation counting analysis relative to control.
Experiment [14] concerns the target cAMP-dependent protein kinase catalytic subunit beta (Homo sapiens) (UniProt P22694). Kind of experiment: Inhibition of human full length PKAbeta using KEAKEKRQEQIAKR substrate at 1 uM incubated for 40 mins by [33P]-gammaATP based Topcount scintillation counting analysis relative to control.

Calls of active or inactive are those of the source. The calls are words filed in the database; no cut-off is given here.

On to `Cc1ccc2c(c1)C(=O)[C@]1(O)CCN(c3ccc(N)cc3)C1=N2`, for which, in the experiment on HeLa [1], the outcome was Active.
In the case of `Cc1cc2c(-c3ccc(NC(=O)[C@H](N)CC(C)(C)C)cc3C)ccnc2[nH]1`, the result in the experiment on HeLa [2], in the experiment with HeLa [4], in the experiment with HeLa [5], in the experiment with HeLa [6] and with HeLa [7] was inactive. The outcome with HeLa [3] was Active.
Regarding `Cc1cc2c(-c3ccc(NC(=O)[C@H](N)[C@@H](O)C(C)C)cc3C)ccnc2[nH]1`, in [8], the outcome was inactive.
In the case of `Cc1cc2c(-c3ccc(NC(=O)[C@H](N)CC(C)(C)C)cc3C)cncc2[nH]1`, the outcome in the experiment on HeLa [3] was Active. Moreover, the outcome in the experiment with HeLa [6] and with HeLa [7] was inactive.
For the molecule `CC(C)C[C@@H](N)C(=O)Nc1ccc(-c2ccnc3[nH]ccc23)cc1`, the inhibition result in [9], in experiment [10], in [11], in experiment [12], in experiment [13] and in experiment [14] was “inactive” each time.
